PMC8880315, “Understanding the Impact of Age-Related Changes in Pediatric GI Solubility by Multivariate Data Analysis” (Pharmaceutics, 2022)

Conditions: both pediatric fasted gastric fluids (Pn-FaSSGF and Pi-FaSSGF) vs adult FaSSGF

Sp/Sa (%) vs 80–[…] threshold: outside the 80–125% threshold
SMILES: CCCCc1oc2ccccc2c1C(=O)c1cc(I)c(OCCN(CC)CC)c(I)c1 [Amiodarone]
